Amino acid sequences for entries named in this document (tags omitted).
UniProt P30560, whole entry: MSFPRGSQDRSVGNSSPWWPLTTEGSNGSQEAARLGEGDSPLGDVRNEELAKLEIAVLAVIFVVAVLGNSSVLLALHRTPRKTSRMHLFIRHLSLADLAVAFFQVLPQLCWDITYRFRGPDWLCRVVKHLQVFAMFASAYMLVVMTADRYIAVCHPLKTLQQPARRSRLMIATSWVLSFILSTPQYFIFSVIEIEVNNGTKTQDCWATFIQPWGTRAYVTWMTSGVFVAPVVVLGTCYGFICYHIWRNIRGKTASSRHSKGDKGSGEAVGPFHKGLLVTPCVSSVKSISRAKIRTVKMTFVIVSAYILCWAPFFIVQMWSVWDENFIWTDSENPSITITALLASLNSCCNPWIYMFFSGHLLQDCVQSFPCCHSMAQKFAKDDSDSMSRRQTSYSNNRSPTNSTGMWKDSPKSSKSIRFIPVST

For this assay, the target named is V1 receptor (Rattus norvegicus, UniProt P30560). Description: biochemical. It is filed as binding.
Consider `CS(=O)(=O)OCCCOc1ccc(C(=O)N2CCC(N3C(=O)CCc4ccccc43)CC2)cc1` [Example 34, 1-{1-[4-(3-Methylsulfonyloxypropoxy)benzoyl]-4-piperidinyl}-3,4-dihydrocarbostyril], for which the IC50 was 250 nM.

With `CC(=O)NC(C)C(=O)NCCCOc1ccc(C(=O)N2CCC(N3C(=O)CCc4ccccc43)CC2)cc1` (stereo not shown) [Example 209, 1-{1-[4-(3-(2-Acetylaminopropanoylamino)propoxy)benzoyl]-4-piperidinyl}-3,4-dihydrocarbostyril], half-maximal inhibition (IC50) required 250 nM. This counts as sub-micromolar.

On to `CN(C)CC(O)CCCOc1ccc(C(=O)N2CCC(N3C(=O)CCc4ccccc43)CC2)cc1` (stereo not shown) [Example 31, 1-{1-[4-(5-Dimethylamino-4-hydroxypentyloxy)benzoyl]-4-piperidinyl}-3,4-dihydrocarbostyril], for which the IC50 came out at 250 nM.

On to `CN(C)CCCCOc1ccc(C(=O)N2CCC(N3C(=O)CCc4ccccc43)CC2)cc1` [Example 179, 1-{1-[4-(4-Dimethylaminobutoxy)benzoyl]-4-piperidinyl}-3,4-dihydrocarbostyril], for which the half-inhibitory concentration (IC50) came out at 250 nM.

The record behind these values is US5436254A, “Carbostyril derivatives” (Otsuka Pharmaceutical Company, Ltd., priority 1989, dated 1995).
